For this assay, the system named is Nucleic Acid. The experiment in a line: […] association constant for DNA binding to poly (dA.dT). The format is nucleic-acid assay.
Take `CC(=O)Nc1ccc(Nc2c3ccccc3nc3ccccc23)cc1`: the Log K stood at 6.3. As for `COC(=O)Nc1ccc(Nc2c3ccccc3nc3ccccc23)cc1`, the figure is 6.36; as for `CNC(=O)Nc1ccc(Nc2c3ccccc3nc3ccccc23)cc1`, 6.24. As for `CS(=O)(=O)Nc1cccc(Nc2c3ccccc3nc3ccccc23)c1`, the figure is 5.73.

The values above are taken from ChEMBL document CHEMBL1121956, “Potential antitumor agents. 37. Organophosphorus derivatives of 9-anilinoacridine” (1982).
